According to USRE34712E, “Pharmaceutically useful (+)-1-(3-dimethylaminopropyl)-1-(4'-fluorophenyl)-1,3-dihydroiso benzofuran-5-carbonitrile and non-toxic acid addition salts thereof” (priority 1988, dated 1994):

How the values were obtained:
[1] = test system: ^3 H-serotonin (5-HT) uptake in rat brain synaptosomes; assay: Inhibition of ^3 H-serotonin uptake in rat brain synaptosomes; type: biochemical; conditions: for IC50: rat brain synaptosomes, ^3 H-5-HT 10 nM, 10 min at 37° C., in vitro
Description: By this method the inhibition by drugs of the uptake of .[.3 H-serotonin.]. .Iadd.^3 H-serotonin .Iaddend.(^3 H-5-HT)(10 nm) in rat brain synaptosomes is determined in vitro. Method and results in Hyttel, Psychopharmacology 1978, 60, 13-18; Hyttel, Prog. Neuro-Psychopharmacol. & Biol. .[.Psychait..]. .Iadd.Psychiat. .Iaddend.1982, 6,277-295; Hyttel & Larsen, Acta pharmacol. tox. 1985, 56, suppl. 1, 146-153. .[.Procedure p.].
Male Wistar (Mol: Wist) rats (125-250 g) are sacrified by decapitation and .[.exanguinated.]. .Iadd.exsanguinated .Iaddend.Brain tissue (minus cerebellum) is gently homogenized (glass teflon homogenizer) in 40 vol (w/v) of ice cold 0.32M of sucrose containing 1 mM of nialamide. The P2 fraction (synaptosomal fraction) is obtained by centrifugation (600 g. 10 min and 25000 g. 55 min, 4° C.) and suspended in 800 volumes of a modified Krebs-Ringer-phosphate buffer, pH 7.4.
To 4000 μl of the synaptosomal suspension (5 mg original tissue) on ice are added 100 μl test substance in water. After preincubation at 37° C. for 5 min, 100 μl of ^3 H-1-NA (final .[.concnetration.]. .Iadd.concentration .Iaddend.10 nM) are added and the samples are incubated for 10 min at 37° C. The incubation is terminated by filtering the samples under vacuum through .[.Whatmam.]. .Iadd.Whatman .Iaddend.GF/F filters with a wash of 5 ml buffer containing 10 μM of unlabeled 5-HT. The filters are placed in counting vitals and 4 ml of appropriate scintillation fluid (e.g. Picofluor ®15) are added. After shaking for 1 h and storage 2 h in the dark the content of radioactivity is determined by liquid scintillation counting. Uptake is obtained by subtracting the nonspecific binding and passive transport measured in the presence of 10 μM citalopram (Lu 10-171-B).
For determination of the inhibition of uptake five concentrations of drugs covering 3 decades are used.
The measured cpm are plotted against drug concentration on semilogarithmic paper, and the best fitting s-shaped curve is drawn. The IC50 -value is determined as the concentration, at which the uptake is 50% of the total uptake in control samples minus the nonspecific binding and uptake in the presence of 10 μM of citalopram.

5-HT reuptake = conditions: racemate; background statement; cited from earlier work

SMILES | IC50 [1] [nM] | 5-HT uptake inhibition, share residing in the enantiomer ([1]; (+)-enantiomer compared with (-)-enantiomer) | selectivity as inhibitor of 5-HT reuptake (5-HT reuptake)
CN(C)CCCC1(c2ccc(F)cc2)OCc2cc(C#N)ccc21 (single isomer, unassigned; (-)) [(-)-citalopram, (-)-1-(3-dimethylaminopropyl)-1-(4'-fluorophenyl)-1,3-dihydroisobenzofuran-5-carbonitrile] | 150 | – | –
CN(C)CCCC1(c2ccc(F)cc2)OCc2cc(C#N)ccc21 (single isomer, unassigned; (+)) [(+)-citalopram, (+)-1-(3-Dimethylaminopropyl)-1-(4'-fluorophenyl)-1,3-dihydroisobenzofuran-5-carbonitrile] | 1.1 | almost the entire 5-HT uptake inhibition resided | –
CN(C)CCCC1(c2ccc(F)cc2)OCc2cc(C#N)ccc21 (racemic) [(±)-citalopram, 1-(3-dimethylaminopropyl)-1-(4'-fluorophenyl)-1,3-dihydroisobenzofuran-5-carbonitrile, reference compound] | 1.8 | – | very selective inhibitor of 5-HT reuptake
